PMC3087300 (Bioorganic & medicinal chemistry, 2009)
Read-outs that look alike come from different tables or passages of the source.

By UniProt entry, the sequences of proteins in these tests, tags left out. Residues count along the entry.
UniProt P07288, 25-261: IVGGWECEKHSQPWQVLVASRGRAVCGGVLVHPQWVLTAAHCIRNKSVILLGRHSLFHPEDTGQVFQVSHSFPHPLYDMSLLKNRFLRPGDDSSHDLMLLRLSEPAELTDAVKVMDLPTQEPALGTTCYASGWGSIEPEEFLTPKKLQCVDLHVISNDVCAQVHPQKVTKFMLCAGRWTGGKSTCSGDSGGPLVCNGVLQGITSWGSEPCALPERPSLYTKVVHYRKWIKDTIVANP

Legend:
PSA = PSA (Homo sapiens, UniProt P07288)
chymotrypsin = chymotrypsin (Bos taurus, UniProt P00766); assay: Chymotrypsin specificity assay; type: biochemical; conditions: read-out: Ki against chymotrypsin; data not shown
[1] = P2-P3 screen boronic acids and PSA imaging agents, Table 2
[2] = read-out: Ki for PSA, boronic acid inhibitors
[3] = N-methylated boronic acids, Table 3

Mu-SSQn(boro)L [Compound 45] was tested, and the Ki (PSA; [1]) was 25.3 ± 1.1 nM and the Ki (PSA; [2]) was 25 nM.
Z-S ^* SK ^* L(boro)L [Compound 51] was tested, and the Ki (PSA; [3]) was 5600 ± 100 nM.
With Z-SSKn(boro)L [Compound 43] the Ki (PSA; [1]) was 48.4 ± 3.6 nM.
With Z-SSK ^* L(boro)L [Compound 48] the “fold increase in Ki for PSA relative to parent inhibitor 1” value (PSA) was 38 fold and the Ki (PSA; [3]) was 2500 ± 100 nM.
In the case of Z-SSQn(boro)L [Compound 44], the Ki (chymotrypsin) is reported as 211 nM, the Ki (PSA; [1]) is reported as 27.5 ± 2.4 nM and the Ki (PSA; [2]) is reported as 27 nM.
